This note sets out measurements from patent publication US20080009551A1, “Methods and Compositions for Identifying Modulators of G Protein-Coupled Receptors” (Arena Pharmaceuticals, Inc., priority 2003, published 2008).

The chains behind the UniProt entries cited, without tags or fusion partners. A line that says so, or that is headed by a name, gives the form on record, which may keep a tag or linker.
UniProt P08483, with tags, fused parts or gaps: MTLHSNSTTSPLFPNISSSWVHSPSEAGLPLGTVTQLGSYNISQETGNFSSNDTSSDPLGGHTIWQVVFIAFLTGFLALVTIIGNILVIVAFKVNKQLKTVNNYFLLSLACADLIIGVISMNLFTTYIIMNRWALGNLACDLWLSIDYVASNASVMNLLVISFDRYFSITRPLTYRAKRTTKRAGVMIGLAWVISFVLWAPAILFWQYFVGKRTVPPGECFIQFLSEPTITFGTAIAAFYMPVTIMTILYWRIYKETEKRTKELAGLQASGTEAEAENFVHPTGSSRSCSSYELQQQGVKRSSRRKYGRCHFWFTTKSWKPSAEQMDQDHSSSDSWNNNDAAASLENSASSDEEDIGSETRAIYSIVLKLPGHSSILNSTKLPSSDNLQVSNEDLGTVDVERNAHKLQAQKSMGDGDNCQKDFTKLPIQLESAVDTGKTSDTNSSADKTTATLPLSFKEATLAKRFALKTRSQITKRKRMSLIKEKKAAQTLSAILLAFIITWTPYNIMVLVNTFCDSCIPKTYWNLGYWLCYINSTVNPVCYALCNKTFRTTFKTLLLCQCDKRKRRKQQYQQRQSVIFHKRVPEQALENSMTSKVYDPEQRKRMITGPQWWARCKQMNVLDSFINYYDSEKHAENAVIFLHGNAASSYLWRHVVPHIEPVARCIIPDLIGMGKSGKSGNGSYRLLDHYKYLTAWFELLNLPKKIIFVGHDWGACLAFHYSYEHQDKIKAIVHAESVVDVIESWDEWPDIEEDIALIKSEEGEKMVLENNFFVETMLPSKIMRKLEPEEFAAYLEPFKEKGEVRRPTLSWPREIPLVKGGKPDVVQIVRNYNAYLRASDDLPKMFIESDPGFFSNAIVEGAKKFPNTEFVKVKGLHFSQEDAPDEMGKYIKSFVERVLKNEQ

The target in this assay is Rm3-Rlu (Rattus norvegicus, UniProt P08483). To be noted: similar treatment (1 μM, 20 h), wild-type receptor Rm3-Rlu.

With `CN1[C@@H]2CC[C@H]1C[C@@H](OC(=O)C(CO)c1ccccc1)C2` (stereo partly shown) [atropine], the “effect on [3H]NMS binding sites” value is “no significant effect”.
